{"source": "patent US7638495B2", "about": "“Peptides as solubilizing excipients for transforming growth factor β proteins” (Wyeth, priority 2002, dated 2009)", "key": {"[1]": {"assay": "Solubility profile of rhBMP-2 (salt concentration, pH)", "type": "physicochemical", "from_the_text": "rhBMP-2 has a unique solubility profile."}, "[2]": {"assay": "Reverse phase and cation exchange chromatography of supernatant of rhBMP-2 precipitated with Na2SO4", "type": "physicochemical", "description": "Reverse Phase and Cation Exchange Chromatography were performed on supernatant obtained from rhBMP-2 precipitated with 5 mM and 18 mM Na2SO4. The supernatant was separated from the pellet by microcentrifugation at ˜14,000 RPM for 30 minutes at about 2° C. to 8° C.\nThe six dimeric isoforms of rhBMP-2 were separated by cation exchange chromatography (FIG. 1). […] The increase in optical density became apparent at about a range of 3 mM to 4 mM Na2SO4. The amount of precipitated material was determined by reverse phase chromatography by comparing the protein concentration in the starting material with that in the supernatant of the precipitated material. At 5 mM Na2SO4, the protein concentration had decreased by 63% of the original amount. At 18 mM Na2SO4 the protein concentration had decreased by 81% of the initial concentration. The supernatants of these precipitates were analyzed by cation exchange chromatography."}}}
{"substance": "rhBMP-2: Recombinant human BMP-2 produced in Cho cells, a mixture of six dimeric isoforms", "values": [{"measurement": "solubility profile", "setting": "[1]; dependence on salt concentration and pH", "result": "most soluble at low salt concentrations and low pH"}, {"measurement": "ionic strength above which it remains soluble at higher pH values", "setting": "[1]; higher pH values, increased salt concentration", "result": "> 0.15", "unit": "M"}, {"measurement": "decrease of protein concentration in supernatant vs original amount", "setting": "[2]; 5 mM Na2SO4", "result": 63, "unit": "%"}, {"measurement": "decrease of protein concentration in supernatant vs initial concentration", "setting": "[2]; 18 mM Na2SO4", "result": 81, "unit": "%"}]}
